Assay results published in PMC11201660 (Biomolecules, 2024).
Like-named read-outs stand apart in the source and are kept apart here.

The chains behind the UniProt entries cited, without tags or fusion partners. Residues count along the entry.
UniProt P06276, 29-602 limits assumed: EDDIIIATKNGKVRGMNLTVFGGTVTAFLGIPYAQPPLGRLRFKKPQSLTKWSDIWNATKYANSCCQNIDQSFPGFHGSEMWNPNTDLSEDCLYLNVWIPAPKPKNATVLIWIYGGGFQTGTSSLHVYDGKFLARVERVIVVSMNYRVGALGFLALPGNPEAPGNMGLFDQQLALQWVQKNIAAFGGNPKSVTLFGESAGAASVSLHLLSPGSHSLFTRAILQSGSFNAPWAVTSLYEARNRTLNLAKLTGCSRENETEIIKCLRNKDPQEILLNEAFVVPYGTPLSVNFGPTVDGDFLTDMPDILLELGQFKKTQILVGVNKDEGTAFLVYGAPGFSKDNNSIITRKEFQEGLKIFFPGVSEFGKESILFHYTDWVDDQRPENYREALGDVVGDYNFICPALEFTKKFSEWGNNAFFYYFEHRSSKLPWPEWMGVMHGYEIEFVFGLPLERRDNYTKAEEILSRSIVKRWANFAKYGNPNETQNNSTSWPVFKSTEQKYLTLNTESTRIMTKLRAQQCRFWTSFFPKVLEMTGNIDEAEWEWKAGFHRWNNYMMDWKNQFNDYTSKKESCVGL

Key:
[1] = target: T1, cyclosarin-inhibited BChE (Homo sapiens, UniProt P06276); details: cited from earlier work
[2] = target: T1, cyclosarin-inhibited BChE; assay: Oxime-assisted reactivation of cyclosarin-inhibited BChE

Compound	overall reactivation rate constant kr ([1]; 0.1–1 mM HI-6)	time t in which maximal reactivation was achieved [1]	observed first-order reactivation rate kobs (in words) ([2]; oxime 0.1 mM screening)	overall reactivation rate constant kr ([2]; 0.01–0.2 mM oxime, 25 °C)	time t in which maximal reactivation was achieved ([2]; detailed kinetics, 25 °C)
HI-6	13 ± 0.5 M⁻¹ s⁻¹	30 min	highest observed first-order reactivation rate	–	–
O/N=C/c1occc1/C=C\c1ccc(Cl)cc1 [cis,syn-16, (E)-3-((Z)-4-chlorostyryl)furan-2-carbaldehyde oxime]	–	–	–	7.07 ± 0.65 M⁻¹ s⁻¹	105 min
